Reference: US20260382731A1, “BCL-2/BCL-XL PROTEIN DEGRADER AND USE THEREOF” (published 2026)

Test system: MOLT-4 cells
Experiment: Cell viability assay, MOLT-4 (CellTiter-Glo, 72 h)
Settings: read-out: MOLT4 Cell viability IC50
Description: Human T-ALL cell MOLT-4 or SCLC NCI-H146 was cultured using standard cell culture conditions in RPMI-1640 supplemented with 10% FBS in humidified incubator at 37 °C, 5% CO2. To assess the effect of BCL-XL PROTAC degraders on cell viability, exponentially growing cells were seeded at a density of 10,000 cells/well in 96-well plates. After cell seeding, serially-diluted compound or DMSO was added to the cells (in concentration ranging from 0 to 10 uM, 3* dilution series), and plates were incubated for 72 hours. Cell viability was measured using a CellTiter-Glo Luminescent Cell Viability Assay kit (Promega) according to the manufacturer's protocol. The luminescence signal of treated cells was normalized to DMSO control. The dose response curves and IC50 values were generated using Prism.

Row | SMILES | IC50
1 | CCn1c(C)c(S(C)(=O)=O)c(-c2cc(F)cc(N3CCN(c4ncc(NS(=O)(=O)c5ccc(N[C@H](CCN6CCN(CCCOc7cn([C@@H](C(=O)N8C[C@H](O)C[C@H]8C(=O)N[C@@H](CO)c8ccc(-c9scnc9C)cc8)C(C)(C)C)nn7)CC6)CSc6ccccc6)c(S(=O)(=O)C(F)(F)F)c5)cn4)CC3)c2)c1-c1ccc(F)cc1 | 2300 nM
2 | CCn1c(C)c(S(C)(=O)=O)c(-c2cc(F)cc(N3CCN(c4ccc(NS(=O)(=O)c5ccc(N[C@H](CCN6CCN(C(=O)CCCCC(=O)N[C@H](C(=O)N7C[C@H](O)C[C@H]7C(=O)N[C@@H](C)c7ccc(-c8scnc8C)cc7)C(C)(C)C)CC6)CSc6ccccc6)c(S(=O)(=O)C(F)(F)F)c5)cc4)CC3)c2)c1-c1ccc(F)cc1 | 58 nM
3 | CCn1c(C)c(S(C)(=O)=O)c(-c2cc(F)cc(N3CCN(c4ccc(NS(=O)(=O)c5ccc(N[C@H](CCN6CCN(C(=O)CC7CC8(C7)CC(C(=O)N[C@H](C(=O)N7C[C@H](O)C[C@H]7C(=O)N[C@@H](C)c7ccc(-c9scnc9C)cc7)C(C)(C)C)C8)CC6)CSc6ccccc6)c(S(=O)(=O)C(F)(F)F)c5)cc4)CC3)c2)c1-c1ccc(F)cc1 (stereo partly shown) | 75 nM
4 | CCn1c(C)c(C(=O)N2C[C@H](O)[C@@H](F)C2)c(-c2cc(F)cc(N3CCN(c4ccc(NS(=O)(=O)c5ccc(N[C@H](CCN6CCN(C(=O)CCCCCC(=O)N[C@H](C(=O)N7C[C@H](O)C[C@H]7C(=O)N[C@@H](C)c7ccc(-c8scnc8C)cc7)C(C)(C)C)CC6)CSc6ccccc6)c(S(=O)(=O)C(F)(F)F)c5)cc4)CC3)c2)c1-c1ccc(F)cc1 | 23 nM
5 | CCn1c(C)c(C(=O)N2CC[C@@H](C#N)C2)c(-c2cc(F)cc(N3CCN(c4ccc(NS(=O)(=O)c5ccc(N[C@H](CCN6CCN(C(=O)CCCCCC(=O)N[C@H](C(=O)N7C[C@H](O)C[C@H]7C(=O)N[C@@H](C)c7ccc(-c8scnc8C)cc7)C(C)(C)C)CC6)CSc6ccccc6)c(S(=O)(=O)C(F)(F)F)c5)cc4)CC3)c2)c1-c1ccc(F)cc1 | 37 nM
6 | CCn1c(C)c(CS(C)(=O)=O)c(-c2cc(F)cc(N3CCN(c4ccc(NS(=O)(=O)c5ccc(N[C@H](CCN6CCN(C(=O)CCCCCC(=O)N[C@H](C(=O)N7C[C@H](O)C[C@H]7C(=O)N[C@@H](C)c7ccc(-c8scnc8C)cc7)C(C)(C)C)CC6)CSc6ccccc6)c(S(=O)(=O)C(F)(F)F)c5)cc4)CC3)c2)c1-c1ccc(F)cc1 | 130 nM
7 | CCn1c(C)c(S(C)(=O)=O)c(-c2cc(F)cc(N3CCN(c4ccc(NS(=O)(=O)c5ccc(N[C@H](CCN6CCN(CCCCCC(=O)N[C@H](C(=O)N7C[C@H](O)C[C@H]7C(=O)N[C@@H](C)c7ccc(-c8scnc8C)cc7)C(C)(C)C)CC6)CSc6ccccc6)c(S(=O)(=O)C(F)(F)F)c5)cc4)CC3)c2)c1-c1ccc(Cl)cc1 | 6 nM
8 | CCn1c(C)c(C(=O)N2CC[C@@H](F)C2)c(-c2cc(F)cc(N3CCN(c4ccc(NS(=O)(=O)c5ccc(N[C@H](CCN6CCN(C(=O)CCCCCC(=O)N[C@H](C(=O)N7C[C@H](O)C[C@H]7C(=O)N[C@@H](C)c7ccc(-c8scnc8C)cc7)C(C)(C)C)CC6)CSc6ccccc6)c(S(=O)(=O)C(F)(F)F)c5)cc4)CC3)c2)c1-c1ccc(F)cc1 | 200 nM
9 | CCn1c(C)c(S(C)(=O)=O)c(-c2cc(F)cc(N3CCN(c4ccc(NS(=O)(=O)c5ccc(N[C@H](CCN(C)CCN(C)C(=O)CCCCCC(=O)N[C@H](C(=O)N6C[C@H](O)C[C@H]6C(=O)N[C@@H](C)c6ccc(-c7scnc7C)cc6)C(C)(C)C)CSc6ccccc6)c(S(=O)(=O)C(F)(F)F)c5)cc4)CC3)c2)c1-c1ccc(F)cc1 | 23 nM
10 | Cc1ncsc1-c1ccc([C@H](C)NC(=O)[C@@H]2C[C@@H](O)CN2C(=O)[C@@H](NC(=O)CCCCCC(=O)N2CCN(CC[C@H](CSc3ccccc3)Nc3ccc(S(=O)(=O)Nc4ccc(N5CCN(c6cc(F)cc(-c7c(C(=O)NCCC8CCOCC8)c(C)n(C(C)C)c7-c7ccc(Cl)cc7)c6)CC5)cc4)cc3S(=O)(=O)C(F)(F)F)CC2)C(C)(C)C)cc1 | 82 nM
11 | CCn1c(C)c(S(C)(=O)=O)c(-c2cc(F)cc(N3CCN(c4ccc(NS(=O)(=O)c5ccc(N[C@H](CCN6CCN(C(=O)CCCCCC(=O)N[C@H](C(=O)N7C[C@H](O)C[C@H]7C(=O)NC7(c8ccc(-c9scnc9C)cc8)CC7)C(C)(C)C)CC6)CSc6ccccc6)c(S(=O)(=O)C(F)(F)F)c5)cc4)CC3)c2)c1-c1ccc(Cl)cc1 | 44 nM
12 | CCn1c(C)c(C(=O)N2CC3(CCOCC3)C2)c(-c2cc(F)cc(N3CCN(c4ccc(NS(=O)(=O)c5ccc(N[C@H](CCN6CCN(CCCCCCC(=O)N[C@H](C(=O)N7C[C@H](O)C[C@H]7C(=O)N[C@@H](C)c7ccc(-c8scnc8C)cc7)C(C)(C)C)CC6)CSc6ccccc6)c(S(=O)(=O)C(F)(F)F)c5)cc4)CC3)c2)c1-c1ccc(F)cc1 | 12 nM
13 | CCn1c(C)c(S(=O)(=O)NCCN(C)C)c(-c2cc(F)cc(N3CCN(c4ccc(NS(=O)(=O)c5ccc(N[C@H](CCN6CCN(C(=O)CCCCCC(=O)N[C@H](C(=O)N7C[C@H](O)C[C@H]7C(=O)N[C@@H](C)c7ccc(-c8scnc8C)cc7)C(C)(C)C)CC6)CSc6ccccc6)c(S(=O)(=O)C(F)(F)F)c5)cc4)CC3)c2)c1-c1ccc(F)cc1 | 11 nM
14 | CCn1c(C)c(S(C)(=O)=O)c(-c2cc(F)cc(N3CCN(c4ccc(NS(=O)(=O)c5ccc(N[C@H](CCN6CCN(C(=O)C7CC8(CC(CC(=O)N[C@H](C(=O)N9C[C@H](O)C[C@H]9C(=O)N[C@@H](C)c9ccc(-c%10scnc%10C)cc9)C(C)(C)C)C8)C7)CC6)CSc6ccccc6)c(S(=O)(=O)C(F)(F)F)c5)cc4)CC3)c2)c1-c1ccc(F)cc1 (stereo partly shown) | 140 nM
15 | CCn1c(C)c(S(C)(=O)=O)c(-c2cc(F)cc(N3CCN(c4ccc(NS(=O)(=O)c5ccc(N[C@H](CCN6CCN(C(=O)COCCOCCC(=O)N[C@H](C(=O)N7C[C@H](O)C[C@H]7C(=O)N[C@@H](C)c7ccc(-c8scnc8C)cc7)C(C)(C)C)CC6)CSc6ccccc6)c(S(=O)(=O)C(F)(F)F)c5)cc4)CC3)c2)c1-c1ccc(F)cc1 | 78 nM
16 | CCn1c(C)c(S(C)(=O)=O)c(-c2cc(F)cc(N3CCN([C@H]4CC[C@@H](NS(=O)(=O)c5ccc(N[C@H](CCN6CCN(C7CCN(CCOc8cc([C@H](C(=O)N9C[C@H](O)C[C@H]9C(=O)N[C@@H](CO)c9ccc(-c%10scnc%10C)cc9)C(C)C)on8)CC7)CC6)CSc6ccccc6)c(S(=O)(=O)C(F)(F)F)c5)CC4)CC3)c2)c1-c1ccc(F)cc1 | 7400 nM
17 | CCn1c(C)c(C(=O)N2CCOCC2)c(-c2cc(F)cc(N3CCN(c4ccc(NS(=O)(=O)c5ccc(N[C@H](CCN6CCN(C(=O)CCCCCC(=O)N[C@H](C(=O)N7C[C@H](O)C[C@H]7C(=O)N[C@@H](C)c7ccc(-c8scnc8C)cc7)C(C)(C)C)CC6)CSc6ccccc6)c(S(=O)(=O)C(F)(F)F)c5)cc4)CC3)c2)c1-c1ccc(Cl)cc1 | 39 nM
18 | CCn1c(C)c(S(=O)(=O)NCCC2CCOCC2)c(-c2cc(F)cc(N3CCN(c4ccc(NS(=O)(=O)c5ccc(N[C@H](CCN6CCN(C(=O)CCCCCC(=O)N[C@H](C(=O)N7C[C@H](O)C[C@H]7C(=O)N[C@@H](C)c7ccc(-c8scnc8C)cc7)C(C)(C)C)CC6)CSc6ccccc6)c(S(=O)(=O)C(F)(F)F)c5)cc4)CC3)c2)c1-c1ccc(F)cc1 | 34 nM
19 | CCn1c(C)c(S(C)(=O)=O)c(-c2cc(F)cc(N3CCN(c4ccc(NS(=O)(=O)c5ccc(N[C@H](CCN6CCN(C(=O)CCCCOC(=O)N[C@H](C(=O)N7C[C@H](O)C[C@H]7C(=O)N[C@@H](C)c7ccc(-c8scnc8C)cc7)C(C)(C)C)CC6)CSc6ccccc6)c(S(=O)(=O)C(F)(F)F)c5)cc4)CC3)c2)c1-c1ccc(F)cc1 | 54 nM
20 | CCn1c(C)c(S(C)(=O)=O)c(-c2cc(F)cc(N3CCN(c4ccc(NS(=O)(=O)c5ccc(N[C@H](CCN6CCC7(CC6)CN(C(=O)CCCCC(=O)N[C@H](C(=O)N6C[C@H](O)C[C@H]6C(=O)N[C@@H](C)c6ccc(-c8scnc8C)cc6)C(C)(C)C)C7)CSc6ccccc6)c(S(=O)(=O)C(F)(F)F)c5)cc4)CC3)c2)c1-c1ccc(F)cc1 | 160 nM
21 | CCn1c(C)c(S(C)(=O)=O)c(-c2cc(F)cc(N3CCN(c4ccc(NS(=O)(=O)c5ccc(N[C@H](CCN6CCN(C(=O)C7CC8(C7)CN(CC(=O)N[C@H](C(=O)N7C[C@H](O)C[C@H]7C(=O)N[C@@H](C)c7ccc(-c9scnc9C)cc7)C(C)(C)C)C8)CC6)CSc6ccccc6)c(S(=O)(=O)C(F)(F)F)c5)cc4)CC3)c2)c1-c1ccc(F)cc1 | 74 nM
22 | CCn1c(C)c(S(C)(=O)=O)c(-c2cc(F)cc(N3CCN(C4CCC(NS(=O)(=O)c5ccc(N[C@H](CCN6CCCN(C(=O)CCCCCC(=O)N[C@H](C(=O)N7C[C@H](O)C[C@H]7C(=O)N[C@@H](C)c7ccc(-c8scnc8C)cc7)C(C)(C)C)CC6)CSc6ccccc6)c(S(=O)(=O)C(F)(F)F)c5)CC4)CC3)c2)c1-c1ccc(F)cc1 (stereo partly shown) | 10 nM
23 | CCn1c(C)c(S(C)(=O)=O)c(-c2cc(F)cc(N3CCN(c4cnc(NS(=O)(=O)c5ccc(N[C@H](CCN6CCN(C7CCN(CCOc8cc([C@@H](C(=O)N9C[C@H](O)C[C@H]9C(=O)N[C@@H](CO)c9ccc(-c%10scnc%10C)cc9)C(C)C)on8)CC7)CC6)CSc6ccccc6)c(S(=O)(=O)C(F)(F)F)c5)cn4)CC3)c2)c1-c1ccc(F)cc1 | 196 nM
24 | CCn1c(C)c(S(C)(=O)=O)c(-c2cc(F)cc(N3CCN(c4ccc(NS(=O)(=O)c5ccc(N[C@H](CCN6CCN(C7CCN(CCOc8cc([C@@H](C(=O)N9C[C@H](O)C[C@H]9C(=O)N[C@@H](CO)c9ccc(-c%10scnc%10C)cc9)C(C)C)on8)CC7)CC6)CSc6ccccc6)c(S(=O)(=O)C(F)(F)F)c5)cn4)CC3)c2)c1-c1ccc(F)cc1 | 137 nM
25 | CCn1c(C)c(S(C)(=O)=O)c(-c2cc(F)cc(N3CCN(c4ccc(NS(=O)(=O)c5ccc(N[C@H](CCN6CCN(CCOCCOCCC(=O)N[C@H](C(=O)N7C[C@H](O)C[C@H]7C(=O)N[C@@H](C)c7ccc(-c8scnc8C)cc7)C(C)(C)C)CC6)CSc6ccccc6)c(S(=O)(=O)C(F)(F)F)c5)cc4)CC3)c2)c1-c1ccc(F)cc1 | 45 nM
